Experimental data published in patent US20070087988A1, “Hematopoietic progenitor kinase 1 for modulation of an immune response” (New York University, priority 2005, published 2007).

Tests used:
[1] = test system: T cells; test: Apoptosis of TCR-stimulated T cells, annexin V / 7AAD staining; format: cell-based, mouse; conditions: addition of exogenous IL-2
From the text: For measurement of apoptosis, HPK1^−/− and wild type T cells were stimulated as above, in the presence or absence of PGE2, and then stained with annexin V-PE and 7AAD.

[2] = test system: T cells; test: T cell proliferation on anti-CD3/anti-CD28 TCR crosslinking, 3H-thymidine; format: cell-based, mouse; conditions: addition of exogenous IL-2
Description: Naïve T cells (2×10^5) were seeded onto a 96-well plate and incubated with 1 μg/ml anti-CD3 and anti-CD28 or 10 μg/ml ConA for three days in the presence or absence of 100 pM PGE2 and then pulsed with 1 μCi/well ^3H thymidine (MP Biomedicals, Irvine, Calif.) for 18 hours before harvesting.
T cells were negatively selected using the Pan T cell isolation kit (Miltenyi Biotech Inc., Auburn, Calif.). Isolated T cells were 97% pure, as assessed by anti CD3-FITC staining. 2×10^5 Naïve T cells were seeded on a 96-well plate and incubated with various dilutions of anti-CD3 and 1 μg/ml of anti-CD28 for 72 hours in the presence or absence of 1 nM PGE2 and then pulsed with 1 μCi/well ^3H thymidine (MP Biomedicals, Irvine, Calif.) for 18 hours before harvest.

Substance: IL-2: exogenous IL-2, T cell growth factor, added to wild type T cells
- susceptibility of wild type T cells to apoptosis [1]: rescued
- proliferative phenotype of wild type T cells (thymidine incorporation) [2]: only partially rescues
